Source: patent publication US12343326B2, “Psychoactive medicines and their use for treating psychiatric and neurological conditions and disorders” (Transcend Therapeutics, Inc., priority 2021, dated 2025)

Key:
[1] = test system: 168 GPCRs; assay: β-arrestin based GPCR screen (PathHunter / GPCRmax), agonist mode; assay type: cell-based; conditions: 1 or 10 mM
[2] = test system: 168 GPCRs; assay: β-arrestin based GPCR screen (PathHunter / GPCRmax), antagonist mode; conditions: 1 or 10 mM

For CNC(C)C(=O)c1ccc2c(c1)OCO2 (centres unmarked) [methylone, 3,4-methylenedioxy-N-methylcathinone], the “agonist activity in GPCRmax screen of 168 GPCRs” value [1] was “no significant agonist activity” and the “antagonist activity in GPCRmax screen of 168 GPCRs” value [2] was “No antagonist activity was detected”.
